Test results taken from publication PMC12631912, “A Multifunctional Molecular Probe for Multimodal Imaging‐Guided Potent Photothermal/Photodynamic Therapy of Endometriosis” (Advanced Science, 2025).

Tests used:
EESCs = experiment: CCK-8 cytotoxicity without laser irradiation; format: cell-based, human; conditions: CCK-8, 24 h incubation, ICG concentration up to 300 µg mL^−1
Protocol: (§1) The CCK‐8 assay was used to quantitatively assess the viability of Ishikawa cells and EESCs after treatment with cRGD‐ILD or ILD. The cells (1 × 10^4 per well) were seeded in a 96‐well plate, allowed to adhere overnight, and then added to various concentrations of ICG (ranging from 10 to 300 µg mL^−1) in the form of ILD and cRGD‐ILD. After 24 h, the medium was replaced with fresh medium containing 10% CCK‐8 reagent and incubated for an additional 2 h. The absorbance at 450 nm was measured using a Synergy 2 multimode microplate reader (BioTek, USA), with the wells without cells serving as blanks. All experiments were performed in triplicate.

Ishikawa cells = experiment: CCK-8 cytotoxicity without laser irradiation; format: cell-based; conditions: CCK-8, 24 h incubation, ICG concentration up to 300 µg mL^−1
Protocol: as §1

Substance: ICG‐lys‐DTPA@Gd [ILD]
- cell viability without laser irradiation (EESCs): above 90%
- cell viability without laser irradiation (Ishikawa cells): above 90%
